Yeast mating assay 1: variants of the scFv Ab-14

The measurements come from Engelhart et al. 2022 (doi:10.1038/s41597-022-01779-4) through the FLAb antibody collection.

Antigen: PDVDLGDISGINAS, a 14-residue peptide of the SARS-CoV-2 spike HR2 region.

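In library AAYL49, one, two or three CDR residues were substituted; doubles and triples were drawn at random. In AlphaSeq, yeast of one mating type display the scFv and yeast of the other type display the target. The frequency of each diploid, read from paired DNA barcodes, reflects how well the two displayed proteins bind. Each replicate has its own calibration line, from reference interactions of the BCL2 family. Mating was done three times.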

Ab-14 is the parent antibody, in scFv form: VH, then a 15-residue (Gly4Ser)3 linker, then VL. The light chain is unchanged in all variants.
VH: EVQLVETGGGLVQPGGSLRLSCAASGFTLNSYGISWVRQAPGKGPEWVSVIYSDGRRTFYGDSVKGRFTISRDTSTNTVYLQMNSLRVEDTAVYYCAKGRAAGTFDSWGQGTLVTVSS
VL: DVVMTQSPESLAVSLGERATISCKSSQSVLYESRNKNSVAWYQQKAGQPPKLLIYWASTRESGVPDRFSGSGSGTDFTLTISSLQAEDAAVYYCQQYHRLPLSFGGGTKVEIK

Variants are written as CDR1, CDR2 and CDR3 of the heavy chain (limits as in the source). Parent: GFTLNSYGIS, VIYSDGRRTFYGDSVK, GRAAGTFDS. Values are log10 of the apparent Kd in nM; lower means stronger binding. "n.d." means that the variant was in the library but no mating with the target was seen in that replicate; the authors take this as a sign of poor binding, and no number exists.

CDR-H1,CDR-H2,CDR-H3,"replicates, log10 nM",control signals
GFTLNSYGCV,VIYSDGRRTFYGDSVK,GRAAGTFDS,4.12 / 3.87 / n.d.,3/9 (4.21)
GFTLNSYGTS,VIYSDGRRTYYGDSVK,GRTAGTFDS,n.d. / n.d. / n.d.,1/9 (3.11)
CFTLNSYGIS,VIYSDGRRTFYVKSVK,GRAAGTFDS,n.d. / 3.68 / n.d.,3/9 (3.87)
GFTLYSYGIS,VIYSDGRRWFYGDSVD,GRAAGTFDS,n.d. / n.d. / n.d.,0/9
GFTLNSYGQS,VIYSDGRRTFYGDSVK,GRAWGPFDS,n.d. / 4.19 / n.d.,4/9 (4.46)
GKTLNSYGIS,VIYSFGRRTFYGDSVK,GNAAGTFDS,n.d. / n.d. / n.d.,1/9 (4.07)
MFHLNSNGIS,VIYSDGRRTFYGDSVK,GRAAGTFDS,n.d. / n.d. / n.d.,0/9
GFTLNSYGIS,RIYSDGRRTFYCDSVK,GRAAGTFYS,n.d. / n.d. / n.d.,4/9 (3.73)
GHTLNSYGIS,VIYSDPRRTFYGDSVK,GRAAGEFDS,n.d. / n.d. / n.d.,1/9 (3.45)
GFTLNSYGIS,VIYSPGRRTFYGDSYK,GRARGTFDS,n.d. / n.d. / n.d.,0/9
GRTLNSYGIS,VRYSDGRRTFYGDSVK,GRAAGTFAS,4.96 / 4.12 / 3.23,2/9 (5.53)
GFTLNSYGTS,VIYSDDRRTFYTDSVK,GRAAGTFDS,6.13 / 4.20 / 4.48,4/9 (4.47)
GFTLNSYGIS,SIYSDERRTFYGDSVK,GRAAGTFDT,5.35 / n.d. / n.d.,3/9 (3.22)
GYTLNSYGIS,VIYSDGRRTFYGDSVK,GRAAGTFFS,n.d. / n.d. / n.d.,0/9
GFTLNSYGIS,VIYSDGTRTFYGDSVK,GCHAGTFDS,1.12 / 1.29 / 1.25,1/9 (4.58)
GFTLNSYGIM,YIYSDGRRTFYGDSVK,GRAAGTFGS,n.d. / n.d. / n.d.,0/9
GFTLNSYGIS,VIYSDGRRTFDGDSVK,GHAAGTFSS,3.56 / n.d. / n.d.,0/9
KFTLNSYGIS,VIYSDGRRTFYGDSVK,GRAAGTFDS,0.63 / 1.15 / 0.87,0/9
GFTLNSYGIS,VLYSDGRRTFYGDSVH,GRAASTFDS,n.d. / 3.22 / n.d.,0/9
GFTDNSYGIS,VIYSDGRRTFYGDSVK,GRTAGTFAS,n.d. / 3.58 / 4.37,0/9
TFTLNSYGIS,VIYSDGRRTIYGDSVK,HRAAGTFDS,n.d. / n.d. / 4.17,0/9
GFALNSYGIS,VIYSNGRRTFYGFSVK,GRAAGTFDS,n.d. / n.d. / n.d.,0/9
GFQLNFYGIA,VIYSDGRRTFYGDSVK,GRAAGTFDS,n.d. / n.d. / n.d.,0/9
GFALNQYEIS,VIYSDGRRTFYGDSVK,GRAAGTFDS,3.76 / 4.68 / 4.24,3/9 (4.23)
GFTPNSYGIS,VIYSCGRRTFYGDSVK,GRAAGTMDS,n.d. / n.d. / n.d.,0/9
GFTLNSYGYS,GIYSDGRRTFYGDSVK,GRAAGTFQS,n.d. / n.d. / n.d.,1/9 (4.20)
GFTLNSYGIS,VIYSDGRLTFWGDSVK,GRAAMTFDS,5.88 / 3.90 / n.d.,1/9 (5.38)
GFTLNSYGIS,VIYSDGCRTFPGDSVK,PRAAGTFDS,n.d. / n.d. / n.d.,0/9
GFTLESYGHS,VIYSDGRRTFYGDSVK,GRAAGTFCS,n.d. / n.d. / n.d.,1/9 (4.35)
GFTLNSYGIS,VIMSRGRRTFYSDSVK,GRAAGTFDS,n.d. / n.d. / n.d.,2/9 (3.61)
GTTLNSYGIS,VIYSDGRRTFYGDSVK,GRAKGSFDS,1.34 / 1.31 / 1.61,0/9
GFTLNSYKIS,VIYSDGRRTGYGDSVK,GRAAGTHDS,5.03 / n.d. / n.d.,2/9 (3.19)
GFTLNSYGAS,VIYDDGRRTFYGWSVK,GRAAGTFDS,5.23 / 4.20 / 4.79,2/9 (3.38)
GFTLNSYGIS,VIYSDHRRTFYGDSVK,PRAAGTFKS,n.d. / n.d. / n.d.,1/9 (2.29)
GFTLNSYGIS,VAYSDGRRTFYWDSVK,GRAAGDFDS,n.d. / 3.81 / 4.22,3/9 (4.50)
GFTLNSYGIS,VIYIDGRRTFYGDPVK,GRAAGTVDS,3.80 / 5.33 / 4.26,4/9 (3.63)

Picked from the list: the 4 lowest averages where every replicate gave a value.

CDR-H1,CDR-H2,CDR-H3,"replicates, log10 nM",control signals
KFTLNSYGIS,VIYSDGRRTFYGDSVK,GRAAGTFDS,0.63 / 1.15 / 0.87,0/9
GFTLNSYGIS,VIYSDGTRTFYGDSVK,GCHAGTFDS,1.12 / 1.29 / 1.25,1/9 (4.58)
GTTLNSYGIS,VIYSDGRRTFYGDSVK,GRAKGSFDS,1.34 / 1.31 / 1.61,0/9
GRTLNSYGIS,VRYSDGRRTFYGDSVK,GRAAGTFAS,4.96 / 4.12 / 3.23,2/9 (5.53)

Three control strains display no target. For library AAYL49, 15% of the pairings with them gave a signal, with a median of 4.06 and one signal in twenty below 2.83, so weak values seen in few replicates may be background. Also given: how often the same scFv was detected with the empty control strains, with their mean in brackets. In this assay the parent's reference entry averaged 0.65; its copy inside this library read 4.11 (one replicate of three).